In US5756504A, “Tocolytic oxytocin receptor antagonists” (priority 1996, dated 1998):

Molecular target: T1, human myometrium ([^3 H]oxytocin binding site) (Homo sapiens, UniProt P30559)
T1 construct: tissue Oregon Health Sciences Center, Portland, Oreg; host or cells: full-thickness uterine tissue of nonlabor pregnant women at cesarean section, crude membranes
T1 sequence (P30559 1-389): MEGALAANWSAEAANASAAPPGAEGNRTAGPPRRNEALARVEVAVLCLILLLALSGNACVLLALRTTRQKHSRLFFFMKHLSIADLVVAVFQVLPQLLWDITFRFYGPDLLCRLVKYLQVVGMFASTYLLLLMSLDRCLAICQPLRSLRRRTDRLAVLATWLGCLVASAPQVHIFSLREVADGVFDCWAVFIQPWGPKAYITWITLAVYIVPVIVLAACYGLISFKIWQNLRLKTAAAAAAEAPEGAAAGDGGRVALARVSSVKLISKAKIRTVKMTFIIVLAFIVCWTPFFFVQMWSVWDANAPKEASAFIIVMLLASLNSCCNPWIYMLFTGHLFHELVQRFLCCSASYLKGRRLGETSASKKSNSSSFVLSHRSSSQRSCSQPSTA
Experiment: [3H]OT equilibrium saturation binding, human myometrium
Details: mean, n=3 saturation binding assays
Experimental: Ther., 256(1): 304-308 (1991)]. Uterine tissue was taken from nonpregnant adult Sprague-Dawley rats (Taconic Farms, Germantown, N.Y.) pretreated (18-24 h) with diethylstilbestrol propionate (DES; 300 μg/kg, i.p.). Uterine tissue (full thickness) was also taken with informed consent from nonlabor pregnant women undergoing cesarean section at 38 to 39 weeks gestation (Oregon Health Sciences Center, Portland, Oreg.). Liver and kidney medulla samples were taken from male rats and from human surgical and early postmortem donors (National Disease Research Interchange, Philadelphia Pa.; Analytical Biological Services, Wilmington, Del.).
Nonspecific binding was determined using 1 μM unlabeled OT or AVP in their respective assays. The binding reactions were initiated by the addition of tissue preparation and terminated by filtration using a Skatron cell harvester (model 7019, Skatron, Inc., Sterling, Va.). […] The final protein concentration for the various tissues in each assay ranged from 150 to 300 μg/ml [Lowry, P. H.; Rosebrough, N. J.; Farr, A. L.; Randall, R. J.; J. Biol. Chem., 193:265-275 (1951)].

Kd: 1.1 nM
Substance: [^3 H]oxytocin [[^3 H]OT]
